The target of this test is T1, S. pneumoniae neuraminidase (NanA) (Streptococcus pneumoniae, UniProt P62575).
T1 construct: residues 116-1035 of S. pneumoniae D39 sialidase A precursor (NanA); made in house; host or cells: E. coli BL21(DE3), pET28a
Put plainly: Neuraminidase assay with fluorogenic substrate MNN, NanA. Type of test: biochemical. The protocol: Neuraminidase assay. Neuraminidase activity of NanA was detected using the fluorogenic substrate 2′-(4-methylumbelliferyl)-α-D-N-acetylneuraminic acid (MNN, Sigma). Reactions contained 1.5 mM MNN, 1 nM of NanA in 2.5 mM sodium phosphate buffer (pH 5). Reactions were allowed to incubate for 2 h at 37° C. before fluorescence intensity was measured at excitation and emission wavelengths of 360 nm and 465 nm in a Tecan microplate reader (Männedorf, Switzerland). NanPs was assayed as above with […] of enzyme in 7.5 mM sodium chloride and 4 mM calcium chloride. Compounds were screened at a concentration of 100 μM before dose-dependence was established. Compounds were obtained from a variety of sources (Otava, Kyiv, Ukraine; Interbioscreen, Moscow, Russia; Chembridge San Diego, USA; Maybridge, Cornwell, UK; Sigma, St Louis, USA; Princeton, Princeton, USA; Lifechem, Burlington, Canada; Enamine, Kiev, Ukraine). Neuraminidase assays with oseltamivir were performed using the hydrolyzed version of the compound. […]
Neuraminidase assay. […] Neuraminidase activity of NanA was detected using the fluorogenic substrate 2′-(4-methylumbelliferyl)-α-D-N-acetylneuraminic acid (MNN, Sigma). […] Reactions were allowed to incubate for 2 h at 37° C. before fluorescence intensity was measured at excitation and emission wavelengths of 360 nm and 465 nm in a Tecan microplate reader (Männedorf, Switzerland). […]

Amino acid sequences for entries named in this document (tags omitted). Residues count along the entry.
UniProt P62575, 116-1035: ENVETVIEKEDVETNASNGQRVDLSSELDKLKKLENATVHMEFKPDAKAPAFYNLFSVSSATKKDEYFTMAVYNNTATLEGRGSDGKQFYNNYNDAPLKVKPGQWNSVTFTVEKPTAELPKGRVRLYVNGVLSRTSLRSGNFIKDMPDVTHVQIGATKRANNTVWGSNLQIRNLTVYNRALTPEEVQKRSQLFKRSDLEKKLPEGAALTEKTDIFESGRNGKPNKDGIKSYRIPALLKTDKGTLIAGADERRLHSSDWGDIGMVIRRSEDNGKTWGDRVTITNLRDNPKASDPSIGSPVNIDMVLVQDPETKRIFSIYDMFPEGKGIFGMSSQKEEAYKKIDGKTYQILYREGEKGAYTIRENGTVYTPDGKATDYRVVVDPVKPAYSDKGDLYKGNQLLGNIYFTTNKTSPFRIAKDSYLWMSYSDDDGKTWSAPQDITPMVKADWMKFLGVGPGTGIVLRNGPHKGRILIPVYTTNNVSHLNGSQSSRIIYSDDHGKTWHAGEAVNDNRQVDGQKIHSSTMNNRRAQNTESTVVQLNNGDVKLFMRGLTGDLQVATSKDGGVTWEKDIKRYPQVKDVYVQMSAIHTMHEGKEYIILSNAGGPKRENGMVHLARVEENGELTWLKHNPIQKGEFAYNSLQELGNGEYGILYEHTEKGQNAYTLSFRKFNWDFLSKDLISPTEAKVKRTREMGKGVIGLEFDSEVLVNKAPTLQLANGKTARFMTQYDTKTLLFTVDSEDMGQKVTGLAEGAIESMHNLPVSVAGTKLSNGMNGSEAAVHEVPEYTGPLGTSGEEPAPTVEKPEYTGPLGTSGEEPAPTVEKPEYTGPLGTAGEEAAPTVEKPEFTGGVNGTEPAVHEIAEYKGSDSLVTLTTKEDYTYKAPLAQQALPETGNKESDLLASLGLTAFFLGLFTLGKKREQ

The structures appear in SMILES notation.

The term IC50 denotes the concentration needed to halve the response being measured. A low value points to inhibition by little substance. With `CC(=O)N[C@H]1[C@H]([C@H](O)[C@H](O)CO)OC(C(=O)O)=C[C@@H]1O` [DANA, 2,3-dehydro-2-deoxy-N-acetylneuraminic acid, reference compound], the half-maximal inhibitory concentration (IC50) reads like this: (concentration causing 50% inhibition of NanA activity, sialic acids as competitive inhibitors) 200 µM; (concentration reducing NanA activity by 50%, Example 3) 200 µM.

The values are drawn from US20110280813A1, “NEURAMINIDASE INHIBITORS AND USES THEREOF” (priority 2008, published 2011).
